Laboratory results as given in article PMC3562248, “The MTA family proteins as novel histone H3 binding proteins” (Cell & Bioscience, 2013).

Legend:
Conditions in all cases: both partners purified
6xHis-MTA1(454–715) = molecular target: T1, 6xHis-MTA1(454–715) (UniProt Q13330 454-715); experiment: pull-down; recombinant 6xHis protein purified from E. coli on immobilised H3 peptide, with 0.5 mg/ml BSA; Coomassie blue staining
T1 construct: also called recombinant MTA1 C-terminal domain; H3BD of MTA1; source: E. coli, purified (nickel beads)
T1 sequence (looked up): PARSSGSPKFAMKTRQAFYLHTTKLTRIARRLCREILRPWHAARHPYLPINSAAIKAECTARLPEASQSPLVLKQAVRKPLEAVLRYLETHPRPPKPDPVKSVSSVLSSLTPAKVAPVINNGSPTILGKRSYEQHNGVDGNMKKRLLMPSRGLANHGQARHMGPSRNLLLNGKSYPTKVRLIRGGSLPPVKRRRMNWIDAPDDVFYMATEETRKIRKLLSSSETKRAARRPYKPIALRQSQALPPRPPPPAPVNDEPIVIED

6×His-MTA2(427–668) = molecular target: T2, 6×His-MTA2(427–668) (UniProt O94776 427-668); experiment: as above
T2 construct: also called recombinant MTA2 C-terminal region; source: E. coli, purified (nickel beads)
T2 sequence (looked up): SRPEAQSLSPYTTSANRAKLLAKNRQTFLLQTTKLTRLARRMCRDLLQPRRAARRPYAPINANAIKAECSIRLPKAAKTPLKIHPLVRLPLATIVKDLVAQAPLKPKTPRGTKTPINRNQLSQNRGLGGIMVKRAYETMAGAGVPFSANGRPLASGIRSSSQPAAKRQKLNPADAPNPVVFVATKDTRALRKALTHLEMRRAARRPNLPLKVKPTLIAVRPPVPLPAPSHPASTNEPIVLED

[1] = molecular target: T3, Flag-MTA1 full length, expressed in 293T cells (UniProt Q13330 1-715); experiment: pull-down; Flag-tagged MTA1 proteins (with what came with them) purified from 293T whole cell extracts on anti-Flag M2 agarose beads and eluted, then on immobilised H3 tail peptide; western blot
T3 construct: MTA1; the anti-Flag purified preparation carried endogenous HDAC1/2 and RbAp48; also called full-length Flag-MTA1; 2XFlag-tagged MTA1; source: also purified from it on anti-Flag M2 agarose beads
T3 sequence (looked up): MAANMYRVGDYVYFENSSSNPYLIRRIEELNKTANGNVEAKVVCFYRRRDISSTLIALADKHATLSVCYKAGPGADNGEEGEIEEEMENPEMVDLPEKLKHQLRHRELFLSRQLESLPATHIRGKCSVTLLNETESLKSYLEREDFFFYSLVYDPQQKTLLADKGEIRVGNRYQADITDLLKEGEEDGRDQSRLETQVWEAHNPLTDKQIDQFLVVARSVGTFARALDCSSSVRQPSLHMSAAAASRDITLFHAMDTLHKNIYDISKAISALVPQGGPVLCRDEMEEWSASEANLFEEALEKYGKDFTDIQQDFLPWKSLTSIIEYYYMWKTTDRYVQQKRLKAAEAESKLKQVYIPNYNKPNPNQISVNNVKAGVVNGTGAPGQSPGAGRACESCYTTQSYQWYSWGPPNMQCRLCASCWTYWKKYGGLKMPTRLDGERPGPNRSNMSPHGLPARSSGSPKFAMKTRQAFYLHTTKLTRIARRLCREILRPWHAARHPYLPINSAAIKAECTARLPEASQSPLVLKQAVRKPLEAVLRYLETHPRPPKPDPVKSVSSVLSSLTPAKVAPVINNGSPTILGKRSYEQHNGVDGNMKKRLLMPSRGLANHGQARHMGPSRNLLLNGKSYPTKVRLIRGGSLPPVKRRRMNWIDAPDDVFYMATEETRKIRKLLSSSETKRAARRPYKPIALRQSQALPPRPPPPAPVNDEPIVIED

[2] = molecular target: T4, Flag-MTA1(454–715), expressed in 293T cells (UniProt Q13330 454-715); experiment: as above
T4 construct: also called MTA1 C-terminal fragment; source: also purified from it on anti-Flag M2 agarose beads
T4 sequence (looked up): T1 sequence (looked up)

Measured: binding result

B1: histone H3 N-terminal tail peptide ([…]), unmodified, C-terminal biotin (peptide)
peptide: not shown
modifications: C-terminal biotin
notes: histone H3 N-terminal […]; linker before the C-terminal biotin; also called H3 peptide; H3 tail peptide; source: synthetic peptide (Scilight Biotechnology LLC)
binds: 6xHis-MTA1(454–715) | 6×His-MTA2(427–668) | [1] | [2]
